The record followed here is publication PMC7950324, “A general method for quantifying ligand binding to unmodified receptors using Gaussia luciferase” (The Journal of Biological Chemistry, 2021).

Chains of the proteins cited; added tags and fusions are not shown. Lines headed by an entry give the natural chain unless they say otherwise; changes in a name come on top.
UniProt P35348: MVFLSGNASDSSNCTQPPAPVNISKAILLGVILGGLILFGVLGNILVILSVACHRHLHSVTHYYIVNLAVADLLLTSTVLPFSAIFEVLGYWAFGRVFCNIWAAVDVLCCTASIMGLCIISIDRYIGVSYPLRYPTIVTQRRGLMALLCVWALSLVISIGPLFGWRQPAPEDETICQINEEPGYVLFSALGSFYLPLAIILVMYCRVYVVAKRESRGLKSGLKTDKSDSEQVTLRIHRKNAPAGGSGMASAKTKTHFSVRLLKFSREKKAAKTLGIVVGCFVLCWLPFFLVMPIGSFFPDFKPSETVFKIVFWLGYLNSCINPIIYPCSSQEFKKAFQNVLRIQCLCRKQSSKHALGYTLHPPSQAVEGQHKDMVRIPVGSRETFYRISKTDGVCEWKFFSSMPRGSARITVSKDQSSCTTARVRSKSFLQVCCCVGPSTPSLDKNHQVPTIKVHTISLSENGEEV

The target in one test is GLuc–ɑ1AAR (Homo sapiens, UniProt P35348). Put plainly: α1AAR ligand screening, receptor–ligand BRET (GLuc–α1AAR).
Conditions: not given
Turning to `CN1CCCCC1C#CC(O)(c1ccccc1)c1ccccc1` (centres unmarked) [BCC0068132], the “receptor-ligand BRET decrease (%) Replicate1” value is listed as 1,11% and the “receptor-ligand BRET decrease (%) Replicate2” value is given as 3,15%.

Still in this test, the particulars now being: 20 min, read-out: receptor-ligand BRET decrease (%) Replicate1.
Take `Cc1cc(C)c(CNC(=O)c2ccc(NC(=O)C3CC3)cc2)c(=O)[nH]1` [BCC0003661]: the inhibition at 10 µM worked out at 1.24%.
The same measure, in the same setting: the value for `Cc1cc(C(=O)NCc2ccc(F)cc2)on1` [BCC0004615] was 0.7%.
In the case of `CC(NC(=O)C1CC1C)c1ccc(-n2cncn2)cc1` (centres unmarked) [BCC0008909], the inhibition at 10 µM was -5.8%.
Still for that read-out and setting: as for `Cc1ccnc(SCc2nc3ccccn3c2Br)n1` [BCC0020406], the figure is -0.42%.
For the compound `Cc1cc(C(=O)Nc2nc3ccc(F)cc3s2)no1` [BCC0024436], the inhibition at 10 µM was found to be 4.45%.
The same measure, in the same setting: the value for `O=C(CN1CCN(CC(=O)Nc2cccc([N+](=O)[O-])c2)CC1)Nc1cccc([N+](=O)[O-])c1` [BCC0036095] was -5.43%; that for `COc1ccc(C(=O)NCCN2CCN(C(=O)c3ccc(OC)c(OC)c3)CC2)cc1OC` [BCC0048283] was -5.39%; that for `CCCN1CCC(N2CCN(S(=O)(=O)c3ccc(C)cc3)CC2)CC1` [BCC0058402] was -6.67%.
On the same count and under the same terms, the value for `CCC(=O)c1ccc(OCCN2CCOCC2)cc1` [BCC0059938] was 8.85%.
Still for that read-out and setting: as for `C=CCOc1ccc2[nH]c(C)c(C(=O)OCC)c2c1` [BCC0065386], the figure is -0.06%; as for `O=C(c1noc2c1COc1ccccc1-2)N1CCN(c2cccc(Cl)c2)CC1` [BCC0066678], -6.37%.
Turning to `CN(C)CCCNCc1ccc2c(c1)OCO2` [BCC0076253], the inhibition at 10 µM is 0.86%.
On the same count and under the same terms, as for `CSc1ccc(CNC2CN3CCC2CC3)cc1` (centres unmarked) [BCC0080607], the figure is 8.06%.
In the case of `COc1ccccc1NS(=O)(=O)c1ccc2c(c1)SC(C)C(=O)N2` (centres unmarked) [BCC0083047], the inhibition at 10 µM is -4.91%.
Consider `O=C(CN1CCC(N2CCCCC2)CC1)N1CCC2(CC1)OCCO2` [BCC0092904], for which the inhibition at 10 µM is -1.8%.
The same measure, in the same setting: as for `O=C(Cn1nnc2ccccc21)N1CCC(n2c(=O)oc3ccccc32)CC1` [BCC0101075], the figure is -11.5%.
Same read-out and setting: as for `Cc1cc(S(=O)(=O)NCc2ccccc2)ccc1OCC(=O)N1CCN(C)CC1` [BCC0113627], the figure is -2.26%; as for `CC(C)(C)Nc1nnc(Sc2ncnc3sccc23)s1` [BCC0117056], 6.52%.

Staying with this test, now noted: 20 min, read-out: receptor-ligand BRET decrease (%) Replicate2.
With `Cc1cc(C)c(CNC(=O)c2ccc(NC(=O)C3CC3)cc2)c(=O)[nH]1` [BCC0003661], the inhibition at 10 µM came to 1.21%.
As for `Cc1cc(C(=O)NCc2ccc(F)cc2)on1` [BCC0004615], the inhibition at 10 µM is -5.49%.
On the same count and under the same terms, as for `CC(NC(=O)C1CC1C)c1ccc(-n2cncn2)cc1` (centres unmarked) [BCC0008909], the figure is -1.11%.
The same measure, in the same setting: as for `Cc1ccnc(SCc2nc3ccccn3c2Br)n1` [BCC0020406], the figure is 1.09%; as for `Cc1cc(C(=O)Nc2nc3ccc(F)cc3s2)no1` [BCC0024436], 0.97%.
On the same count and under the same terms, as for `O=C(CN1CCN(CC(=O)Nc2cccc([N+](=O)[O-])c2)CC1)Nc1cccc([N+](=O)[O-])c1` [BCC0036095], the figure is -9.52%; as for `COc1ccc(C(=O)NCCN2CCN(C(=O)c3ccc(OC)c(OC)c3)CC2)cc1OC` [BCC0048283], -5.11%; as for `CCCN1CCC(N2CCN(S(=O)(=O)c3ccc(C)cc3)CC2)CC1` [BCC0058402], -6.34%.
For `CCC(=O)c1ccc(OCCN2CCOCC2)cc1` [BCC0059938], the inhibition at 10 µM was determined as 5.99%.
On to `C=CCOc1ccc2[nH]c(C)c(C(=O)OCC)c2c1` [BCC0065386], for which the inhibition at 10 µM is 2.3%.
On the same count and under the same terms, the value for `O=C(c1noc2c1COc1ccccc1-2)N1CCN(c2cccc(Cl)c2)CC1` [BCC0066678] was -6.61%; that for `CN(C)CCCNCc1ccc2c(c1)OCO2` [BCC0076253] was 6.02%.
Still for that read-out and setting: as for `CSc1ccc(CNC2CN3CCC2CC3)cc1` (centres unmarked) [BCC0080607], the figure is 8.14%; as for `COc1ccccc1NS(=O)(=O)c1ccc2c(c1)SC(C)C(=O)N2` (centres unmarked) [BCC0083047], -5.6%.
On the same count and under the same terms, the value for `O=C(CN1CCC(N2CCCCC2)CC1)N1CCC2(CC1)OCCO2` [BCC0092904] was 0.52%; that for `O=C(Cn1nnc2ccccc21)N1CCC(n2c(=O)oc3ccccc32)CC1` [BCC0101075] was -13.6%; that for `Cc1cc(S(=O)(=O)NCc2ccccc2)ccc1OCC(=O)N1CCN(C)CC1` [BCC0113627] was 0.41%.
As for `CC(C)(C)Nc1nnc(Sc2ncnc3sccc23)s1` [BCC0117056], the inhibition at 10 µM was 6.57%.
